In the experiment the target is IDO1 (Homo sapiens, UniProt P14902). The experiment in a line: IDO1 Cellular Assay in HeLa Cells Stimulated with IFNγ. Format: cell-based. Particulars: HeLa cells stimulated with IFNγ 100 ng/mL, about 48 hours.

Amino acid sequences for entries named in this document (tags omitted).
UniProt P14902, whole entry: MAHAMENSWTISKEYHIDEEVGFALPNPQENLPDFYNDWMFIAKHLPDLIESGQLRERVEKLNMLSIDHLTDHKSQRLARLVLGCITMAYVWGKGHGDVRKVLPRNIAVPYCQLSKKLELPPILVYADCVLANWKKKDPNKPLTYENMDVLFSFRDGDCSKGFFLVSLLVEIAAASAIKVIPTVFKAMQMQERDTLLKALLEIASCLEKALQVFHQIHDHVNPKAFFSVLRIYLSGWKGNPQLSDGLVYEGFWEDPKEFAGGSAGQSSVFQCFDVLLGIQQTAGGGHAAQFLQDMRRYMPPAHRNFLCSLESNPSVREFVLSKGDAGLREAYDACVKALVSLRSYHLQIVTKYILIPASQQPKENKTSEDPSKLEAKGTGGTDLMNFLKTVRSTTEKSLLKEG

With `Cc1cccc(OC2CCN(C(=O)Cn3nc(C(=O)N4C[C@@H](C)O[C@@H](C)C4)c4c3CCC4)CC2)c1C` [Example 130, 2-{3-[(2R,6S)-2,6-dimethylmorpholine-4-carbonyl]-5,6-dihydrocyclopenta[c]pyrazol-1(4H)-yl}-1-[4-(2,3-dimethylphenoxy)piperidin-1-yl]ethan-1-one], it took 2.8 nM to reach a half-maximal effect (EC50).
`C[C@@H]1C[C@H](Oc2ccccc2Cl)CCN1C(=O)Cn1nc(C(=O)N2CCN(C(=O)CO)CC2)c2c1C[C@H]1C[C@@H]21` [Example 4, 1-((2R,4R)-4-(2-chlorophenoxy)-2-methylpiperidin-1-yl)-2-((3bR,4aR)-3-(4-(2-hydroxyacetyl)piperazine-1-carbonyl)-3b,4,4a,5-tetrahydro-1H-cyclopropa[3,4]cyclopenta[1,2-c]pyrazol-1-yl)ethanone]: the EC50 (commonly the concentration at which the effect is half-maximal) is 3.84 nM.
In the case of `O=C(c1nn(CC(=O)N2CCC(Oc3ncccc3Cl)CC23CC3)c2c1CCCC2)N1CCC(OCCO)CC1` (single isomer, unassigned) [Example 63, (R or S)-1-(7-((3-chloropyridin-2-yl)oxy)-4-azaspiro[2.5]octan-4-yl)-2-(3-(4-(2-hydroxyethoxy)piperidine-1-carbonyl)-4,5,6,7-tetrahydro-1H-indazol-1-yl)ethanone] it was 422 nM; in that of `O=C(c1nn(CC(=O)N2CCC(Oc3ncccc3Cl)CC23CC3)c2c1CCCC2)N1CCC(OCCO)CC1` (single isomer, unassigned) [Example 62, (S or R)-1-(7-((3-chloropyridin-2-yl)oxy)-4-azaspiro[2.5]octan-4-yl)-2-(3-(4-(2-hydroxyethoxy)piperidine-1-carbonyl)-4,5,6,7-tetrahydro-1H-indazol-1-yl)ethanone], 112 nM.
Consider `Cc1cc(Cl)ccc1OC1CCN(C(=O)Cn2nc(C(=O)N3C[C@@H](C)O[C@@H](C)C3)c3c2CCC3)CC1` [Example 145, 1-[4-(4-chloro-2-methylphenoxy)piperidin-1-yl]-2-{3-[(2R,6S)-2,6-dimethylmorpholine-4-carbonyl]-5,6-dihydrocyclopenta[c]pyrazol-1(4H)-yl}ethan-1-one], for which a half-maximal effect (EC50) was put at 16.4 nM.
As for `O=C(CO)N1CCN(C(=O)c2nn(CC(=O)N3CCC(Oc4ccccc4)C4CC43)c3c2[C@@H]2C[C@@H]2C3)CC1` (single isomer, unassigned) [Example 172], the 50% effective concentration (EC50) was determined as 73.8 nM.
In turn, `Cc1cc(F)ccc1OC1CCN(C(=O)Cn2nc(C(=O)N3CCN(C(=O)CO)CC3)c3c2CCCC3)CC1` [Example 79, 1-[4-(4-fluoro-2-methyl-phenoxy)-1-piperidyl]-2-[3-[4-(2-hydroxyacetyl)piperazine-1-carbonyl]-4,5,6,7-tetrahydroindazol-1-yl]ethanone] had an EC50 of 7.16 nM.
With `O=C(CO)N1CCN(C(=O)c2nn(CC(=O)N3CCC(Oc4ccccc4Cl)C4CC43)c3c2[C@@H]2C[C@@H]2C3)CC1` (single isomer, unassigned) [Example 170], the 50% effective concentration (EC50) came out at 2.65 nM.
In turn, `C[C@@H]1CN(C(=O)c2nn(CC(=O)N3CCC(C(=O)c4ccc(F)c(F)c4)CC3)c3c2CCC3)C[C@H](C)O1` [Example 127, 1-[4-(3,4-difluorobenzene-1-carbonyl)piperidin-1-yl]-2-{3-[(2R,6S)-2,6-dimethylmorpholine-4-carbonyl]-5,6-dihydrocyclopenta[c]pyrazol-1(4H)-yl}ethan-1-one] gave an EC50 of 485 nM. This EC50 is about 180-fold higher than that of the compound before.
On to `C[C@@H]1C[C@H](Oc2ncccc2Cl)CCN1C(=O)Cn1nc(C(=O)N2CCC(O)CC2)c2c1C[C@H]1C[C@@H]21` [Example 75, 1-((2R,4R)-4-((3-chloropyridin-2-yl)oxy)-2-methylpiperidin-1-yl)-2-((3bR,4aR)-3-(4-hydroxypiperidine-1-carbonyl)-3b,4,4a,5-tetrahydro-1H-cyclopropa[3,4]cyclopenta[1,2-c]pyrazol-1-yl)ethanone], for which the midpoint of the response, the EC50, lay at 2.04 nM. Against the preceding compound, the EC50 is about 240-fold lower.

Values taken from patent US12576087B2, “Aryloxypiperidine pyrazole compounds as indoleamine 2,3-dioxygenase inhibitors” (Merck Sharp & Dohme LLC, priority 2018, dated 2026).
